{
  "source": "paper PMC3102090",
  "about": "“Interaction between Amyloid Beta Peptide and an Aggregation Blocker Peptide Mimicking Islet Amyloid Polypeptide” (PLoS ONE, 2011)",
  "origin": "cited, not measured here",
  "key": {"[1]": {"test_system": "IAPP", "settings": "ref [13], [17]; cited from earlier work", "source_text": "(§1) One approach to inhibit an aggregation reaction is to re-design the self-recognition interface of peptide or protein molecules, in a manner that the modified molecule is still capable of interacting with the native form, but inhibits its further assembly into larger aggregates. This approach was successfully exploited for example in the case of Islet Amyloid Polypeptide (IAPP), [14]. IAPP is a hydrophobic strongly amyloidogenic peptide, which is produced in the pancreatic islet cells and plays, in the soluble monomeric form, a major role in glucose homeostasis. In certai ..."}, "[2]": {"test_system": "insulin", "settings": "ref [18], [19]; cited from earlier work", "source_text": "as §1"}, "[3]": {"test_system": "Aβ", "settings": "ref [18], cited from earlier work", "source_text": "as §1, with “homeostasis. […]” for “homeostasis.”, “agreement with their intrinsic aggregation propensities, the agg” for “certai”"}},
  "data": [
    {"compound": "CC[C@H](C)[C@@H](C(=O)N[C@@H](CC(C)C)C(=O)N[C@@H](CO)C(=O)N[C@@H](CO)C(=O)N[C@H](C(=O)N[C@@H](CC(N)=O)C(=O)N[C@H](C(=O)NCC(=O)N[C@@H](CO)C(=O)N[C@@H](CC(N)=O)C(=O)N[C@H](C(=O)N[C@@H](Cc1ccc(O)cc1)C(N)=O)[C@@H](C)O)C(C)C)[C@@H](C)O)N(C)C(=O)[C@H](C)NC(=O)CN(C)C(=O)[C@H](Cc1ccccc1)NC(=O)[C@H](CC(N)=O)NC(=O)[C@H](CC(N)=O)NC(=O)[C@H](CO)NC(=O)[C@H](CO)NC(=O)[C@H](Cc1c[nH]cn1)NC(=O)[C@@H](NC(=O)[C@H](CC(C)C)NC(=O)[C@H](Cc1ccccc1)NC(=O)[C@H](CC(N)=O)NC(=O)[C@H](C)NC(=O)[C@H](CC(C)C)NC(=O)[C@H](CCCNC(=N)N)NC(=O)[C@H](CCC(N)=O)NC(=O)[C@@H](NC(=O)[C@H](C)NC(=O)[C@@H]1CSSC[C@H](NC(=O)[C@@H](N)CCCCN)C(=O)N[C@@H](CC(N)=O)C(=O)N[C@@H]([C@@H](C)O)C(=O)N[C@@H](C)C(=O)N[C@@H]([C@@H](C)O)C(=O)N1)[C@@H](C)O)C(C)C", "note": "[IAPP-GI]", "values": [
      {"measurement": "inhibition of IAPP amyloid formation and cytotoxicity", "setting": "[1]", "result": "efficiently inhibits IAPP amyloid formation and cytotoxicity"},
      {"measurement": "effect on cytotoxic assembly of insulin", "setting": "[2]", "result": "block cytotoxic assembly of Aβ and insulin as well"},
      {"measurement": "effect on Aβ40 and Aβ42 fibrillogenesis and cytotoxicity", "setting": "[3]; low micromolar concentrations of Aβ and IAPP-GI, [38]", "result": "strong inhibitory effect"},
      {"measurement": "effect on cytotoxic assembly of Aβ", "setting": "[3]; [19]", "result": "block cytotoxic assembly of Aβ"}
    ]}
  ]
}
